Only some compounds are listed: those with a hit (about 0.42% of all), similar ones and a draw of the others.
Rango complex inh – qHTS Assay for Inhibitors of Rango (Ran-regulated importin-beta cargo) - Importin beta complex formation. Potency, µM (titrated, usually from 92.2 µM), for inactives: at the highest dose inhibition of complex formation. 340,000 compounds, 0.031% hits. Rango CFP/YFP FRET sensor + importin beta, 45 min; calls by dose curve;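 also: 0% = DMSO wells and 100% = buffer wells lacking importin beta; nearly all actives have a fitted effect of over 15% in size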
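FRET biosensor Rango (snurportin 1 IBB between N-terminal EYFP and C-terminal Cerulean), 50 nM in PBS/1 mM DTT/0.02% Tween-20/0.1% BSA, preincubated 5 min RT with compound; 0.125 microM importin beta added, 45 min RT, CFP/YFP FRET ratio read.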
Vif-A3F inh – qHTS for Inhibitors of Vif-A3F Interactions: qHTS | HeLa A3F-eYFP + Vif (tagged APOBEC3F with the HIV-1 protein that degrades it), YFP fluorescence increase | Potency, µM (doses to about 46.1 µM), inactives show top-dose activity, negative = active | 390,000 compounds, 0.2% hits; also: % of control where 0% means no effect; nearly all actives have a fitted effect of over 65% in size
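HeLa cells stably expressing A3F-eYFP plus Vif, plated and incubated overnight at 37 deg C, then exposed to compounds overnight at 37 deg C. Blocked degradation read as raised yellow fluorescence (Ex 488/Em 500-530).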
Rango release inh – qHTS Assay for Inhibitors of RanGTP induced Rango (Ran-regulated importin-beta cargo) - Importin beta complex dissociation | Snurportin-1 (Homo sapiens) + GTP-binding nuclear protein Ran (Homo sapiens) + Importin … | Biochemical FRET Rango-importin beta, RanGTP-induced dissociation | Potency, µM (top dose mostly 46.1 µM), for inactives: at the highest dose activity change, negative = inhibition | 340,000 compounds, 0.071% hits | AID 540253, 2011; calls by dose curve; also: % of control where 0% means no effect; nearly all actives have a fitted effect of over 45% in size
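Quantitative HTS using a FRET biosensor: 0.1 uM Rango, 0.25 uM importin beta, 0.6 uM Ran, 2 mM GTP, 0.2 uM RCC1 final, PBS with DTT, Tween-20 and BSA. Post-read taken 45 min after Ran addition.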
Epigenetic derep – Quantitative High-Throughput Screen for Regulators of Epigenetic Control; murine LDR cells, GFP reporter derepression, 30 h; Potency, µM (titrated, usually from 53.9 µM), for inactives: top-dose GFP activation, usual class: activators; 280,000 compounds, 0.2% hits; also: % of control where 0% means no effect; nearly all actives have a fitted effect of over 60% in size
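GFP-positive cell count by laser-scanning cytometry (objects 20–120 um) after 30 h, 37 C compound exposure of murine LDR cells; reporter is CMV-GFP integrated at a silenced locus, inducible by HDAC or DNMT inhibitors.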
Vif-APOBEC3G blk – qHTS for Inhibitors of Vif-A3G Interactions: qHTS; DNA dC->dU-editing enzyme APOBEC-3G (Homo sapiens), Q9HC16; HeLa A3G-eYFP + Vif (tagged APOBEC3G with the HIV-1 protein that degrades it), YFP fluorescence, overnight; Potency, µM (highest dose often 46.1 µM), inactives show at the top dose activity, negative = active, actives largely listed as inhibitors; 410,000 compounds, 0.076% hits; AID 602310, 2012; also: % is scaled to controls: 0 for no effect and ±100 for the full control effect; nearly all actives have a fitted effect of over 60% in size
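HeLa cells stably expressing Vif and C-terminally eYFP-tagged A3G, seeded overnight at 37 deg C, then exposed to compound by pintool overnight at 37 deg C. Rise in yellow fluorescence (Ex 488/Em 500-530, Acumen) marks blocked Vif-driven A3G degradation.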
* hit, by the source's call; ? = inconclusive; · = no result; [ ] = another dose, or the depositor's remark. Unless noted, calls follow the shape of the dose curve; as a rule, active = well fitted curve in the direction sought with a large enough effect; inconclusive = small, poorly fitted or top-dose-only effect, or another doubt; inactive = no such curve, though single readings can be large; an effect the other way counts as inactive or inconclusive. Potency is read from the fitted curve at half-maximal effect.

Second line of a record – Rango complex inh, Vif-A3F inh, Rango release inh, Epigenetic derep, Vif-APOBEC3G blk
- Cc1cc(NC(=O)/C(C#N)=C/c2ccc(-c3cccc(C(F)(F)F)c3)o2)n(-c2ccccc2)n1
 : ?, ?, -22%, ?, -1%
- N#C/C(=C\c1ccc(-c2cccc(Cl)c2)o1)C(=O)Nc1cccc(C(F)(F)F)c1
 : ·, ?, ·, 11µM*, 2%
- N=c1c(C(=O)NCc2ccco2)cc2c(=O)n3ccccc3nc2n1Cc1ccc(Cl)cc1
 : ?, -38%, ?, 7.1µM*, -9%
- N=c1c(C(=O)NCc2ccco2)cc2c(=O)n3ccccc3nc2n1Cc1ccccc1
 : ?, 4%, ?, 0%, -2%
- COc1ccc2cc(CN(CCc3ccccc3)Cc3nnnn3Cc3ccco3)c(=O)[nH]c2c1
 : ?, -23%, 15µM*, 0%, -6%
- Cc1ccc2[nH]c(=O)c(CN(Cc3ccccc3)Cc3nnnn3Cc3ccco3)cc2c1
 : ·, ·, ·, ·, -2%
- CCOC(=O)c1ccc2cccc(C)n2c1=O
 : ?, -10%, 12µM*[inhibitor], -1%, 1%
- CCOC(=O)c1cc(C(C)=O)c(=O)n(C)c1N
 : 4%, -6%, -2%, 0%, -6%
- O=S(=O)(c1ccccc1C(F)(F)F)N1CCN(c2nc(-c3cccs3)nc3ccccc23)CC1
 : ·, ·, ·, ·, 0%
- COc1ccc(CNc2ncnc3nc[nH]c23)cc1
 : ·, ·, ·, ·, -1%
- O=C(CCN1C(=O)/C(=C/c2ccccc2)SC1=S)Nc1ccccn1
 : -1%, -2%, 15µM*, ·, 2%
- O=C1/C(=C/c2ccc(O)cc2)SC(=S)N1CC1CCCO1 (stereo not given)
 : ?, 22µM*, ?, 7%, -1%
- O=C1/C(=C\c2ccc(O)cc2)SC(=S)N1Cc1ccccc1
 : ?, 11µM*, ?, ·, -18%
- COc1ccc(NC(=O)Cn2c(=O)oc3cc(S(=O)(=O)NC4CCCC4)ccc32)cc1OC
 : ·, -1%, ·, 1%, 1%
- Brc1cc(Br)c[n+](CCc2ccccc2)c1
 : ·, ·, ·, ·, -3%
- CCOc1ccc(C(=O)c2cn(CC(=O)Nc3ccc4c(c3)OCCO4)c3ccc(F)cc3c2=O)cc1
 : ·, -28%, ·, 18%, -4%
- C=CCN1C=CC(=C/C=C(/C#N)C(=O)OCC)C=C1
 : ?, 11µM*, ?, ?, ?
- CCOC(=O)/C(C#N)=C/C=C1/C=CC=CN1C
 : ?, 8%, ?, 0%, 4%
- COc1ccc(OC)c(/C(O)=C/C(=O)C(=O)Nc2cc(C)cc(C)c2)c1
 : 3%, 0%, -14%, -1%, -8%
- COC(=O)C(=O)/C=C(\O)c1c(C)cc(C)cc1C
 : 65µM*, -4%, 7%, 0%, -3%

Grouped by structure: the entries above containing two or more sulfur atoms
Second line of a record – Rango complex inh, Vif-A3F inh, Rango release inh, Epigenetic derep, Vif-APOBEC3G blk
- O=S(=O)(c1ccccc1C(F)(F)F)N1CCN(c2nc(-c3cccs3)nc3ccccc23)CC1
 : ·, ·, ·, ·, 0%
- O=C(CCN1C(=O)/C(=C/c2ccccc2)SC1=S)Nc1ccccn1
 : -1%, -2%, 15µM*, ·, 2%
- O=C1/C(=C/c2ccc(O)cc2)SC(=S)N1CC1CCCO1 (stereo not given)
 : ?, 22µM*, ?, 7%, -1%
- O=C1/C(=C\c2ccc(O)cc2)SC(=S)N1Cc1ccccc1
 : ?, 11µM*, ?, ·, -18%

The list continues:
Second line of a record – Rango complex inh, Vif-A3F inh, Rango release inh, Epigenetic derep, Vif-APOBEC3G blk
- CNC(=O)c1c(NC(=O)c2nc(SCc3ccc(C)cc3)ncc2Cl)sc2c1CCCC2
 : ·, -7%, ·, 22µM*, -2%
- CC(C)(C)n1ncc2c(=O)n(Cc3ccccc3C(F)(F)F)cnc21
 : ·, ·, ·, ·, 2%
- Cc1cc(Br)ccc1SCC(=O)OC/C(O)=C(\C#N)c1nc2ccccc2[nH]1
 : -3%, 25µM*, -17%, 15%, -6%
- N#C/C(=C(/O)CCl)c1nc2ccccc2[nH]1
 : ?, -22%, 13µM*, 4%, ?
- Cc1cccc(C)c1Nc1nnc(SC/C(O)=C(\C#N)c2nc3ccccc3[nH]2)s1
 : ?, -2%, 15µM*, 4%, -4%
- Cc1ccccc1OCC(=O)NCC(=O)OCc1cccc2ccccc12
 : ·, ·, ·, ·, 0%
- C1=Cc2ccccc2/C1=C\c1cccc(/C=C2\C=Cc3ccccc32)c1
 : ·, ·, ·, ·, -24%
- COC(=O)C(C)NC(=O)N1CCN(c2nnc(C)c3c(C)n(-c4ccc(Cl)cc4)nc23)CC1 (stereo not given)
 : ·, ·, ·, 16%, ·
- Nc1c(C(=O)O)sc2nc(-c3ccc(F)cc3)cc(-c3ccccc3)c12
 : ?, 11µM*, -21%, ?, -18%

Assay outcomes as filed in PubChem.
